The values below come from doi:10.1101/2025.02.26.640323, “Aggregation-Dependent Epitope Sequence and Modification Fingerprints of Anti-Aβ Antibodies” (bioRxiv, 2025).

Entries after “also recorded” stand apart in the source; their conditions may differ.

Experiment [1] deals with Aβ(1–15, H6R) ([…]). Description: Biolayer interferometry, H6R peptide. It counts as binding, human. Conditions: Aducanumabbs 10nM, NTA biosensor-loaded 6xHis peptide, PBS pH 7.4, 0.2% BSA, 0.02% Tween 20, 30 °C; vs wildtype. The protocol:
(§1) Figure 2 – figure supplement 2. […] (a) Dot Blot from the purified 6xHis peptides […] and […] were printed using Slide Spotter robot.
The samples were dispensed into a 96 microplate (Greiner bio-one GmbH, Frickenhausen, Germany) at a final volume of 200 μL. […] The peptides were synthesized (purity above 98% - based on UV at 215nm) with Fmoc-Adoa linker (Iris - FAA1435) and C-terminal 6xHis tag. Sensorgrams were measured in double reference against the buffer and the reference sensor signals.
NTA biosensors (Sartorius, Göttingen, Germany) were preincubated into 1XPBS buffer pH 7.4, 0.2% BSA, 0.02% (v/v) Tween 20 for 10 min. A first baseline was established in the same buffer. The 6xHis peptides were loaded onto NTA biosensors at 20 μg/ml for 200 s. Following a buffer wash of 120s, the biosensors were incubated with serial-dilutions of the respective antibodies for 1200s s to measure association and then into buffer for additional 1500s to observe the dissociation phase. Experiments were performed at 30 °C and sample plates were shaken at 1000 rpm. Sensorgrams were globally fitted using Data Analysis software version 12.0.2.3 (Sartorius, Göttingen, Germany) with a 1:1 binding model.

In experiment [2] the test system is endogenous soluble Aβ in pooled human CSF. Put plainly: IP-MS from pooled human CSF. The class given is binding. Conditions: 250 μL pooled human CSF, CHCA matrix; two replicate measurements each from two independent immunoprecipitations. The protocol: However, synthetic Aβ peptides may display different properties than authentic Aβ peptides in biological samples, such as human cerebrospinal fluid (CSF). […] To test whether Lecanemabbs was able to immunoprecipitate endogenous soluble Aβ from a relevant biological sample, we repeated the Lecanemabbs IP-MS experiment with 250 μL of pooled CSF. […] This was in contrast to the binding data from array and BLI towards the minimal monovalent epitopes (Figure 3 – figure supplement 2 and 3).
Antibodies were covalently coupled to Dynabeads M-270 Epoxy (Invitrogen/ThermoFisher Scientific, Waltham, Massachusetts, USA Cat. No. 14311 D), essentially following the manufacturer’s instructions. Tween-20 was omitted from all wash and storage buffers for specific use in IP-MS. In brief, 5 mg of M-270 epoxy beads were weighed into a 1.5-mL reaction vial and washed with 1 mL of buffer C1 (kit component). The bead suspension was divided in aliquots of 200 μL (containing 1mg of beads). The vials were placed on a magnetic stand for a few minutes, and the supernatant was carefully removed and discarded. […]
Analysis by MALDI-TOF-MS was essentially performed as described. […] The samples were dried in a vacuum desiccator and a total of 5000 mass spectra per spot were recorded using an ultrafleXtreme MALDI-TOF/TOF mass spectrometer in reflector mode operated under the software flexControl 3.4 (Bruker, Bremen, Germany).

Experiment [3] concerns Aβ1–15 H6R ([…]). Description: Dot blot of purified 6xHis peptides. The class given is binding. Conditions: dot blot / on-chip titration, 2-fold dilutions of peptide, goat anti-human DL650 fluorescence, vs wildtype. As for the experimental part: as §1
The purified peptides were printed onto white-coated CelluSpot blank slides using the Slide Spotter at a starting amount of 0.05 μg. The slides were allowed to dry for 3 hours and rinsed once with 1X PBS to remove the unbound peptides. […] The fluorescence signal readouts were acquired using Amersham Image Quant 800 (GE Healthcare) with an exposure time of 30 seconds and 4×4 binning.

For the substance “Aducanumabbs: human monoclonal, biosimilar of Aducanumab, Proteogenix (#PX-TA1335)”, the “BLI response for H6R” value in experiment [1] was “completely abolished”. The “immunoprecipitation of endogenous Aβ from CSF” value in experiment [2] was “but not Aducanumabbs immunoprecipitated authentic biological Aβ peptides from pooled human CSF; also recorded: did not produce any Aβ signals”. Also, the “binding strength for H6R Aβ1–15 variant” value in experiment [3] is reported as “reduced binding strength of Aducanumabbs for the H6R Aβ1–15 variant”.
